{"source": "patent US7247705B2", "about": "“Proteins having glucose transporter activity” (Takeda Pharmaceutical Company Limited, priority 2000, dated 2007)", "key": {"hSGLT2 [1]": {"target": "T1, hSGLT2 (Homo sapiens, UniProt P31639)", "T1 construct": "expressed in transfected cells; host or cells: COS7 cells, transient, FuGENE 6", "T1 sequence (P31639 1-672)": "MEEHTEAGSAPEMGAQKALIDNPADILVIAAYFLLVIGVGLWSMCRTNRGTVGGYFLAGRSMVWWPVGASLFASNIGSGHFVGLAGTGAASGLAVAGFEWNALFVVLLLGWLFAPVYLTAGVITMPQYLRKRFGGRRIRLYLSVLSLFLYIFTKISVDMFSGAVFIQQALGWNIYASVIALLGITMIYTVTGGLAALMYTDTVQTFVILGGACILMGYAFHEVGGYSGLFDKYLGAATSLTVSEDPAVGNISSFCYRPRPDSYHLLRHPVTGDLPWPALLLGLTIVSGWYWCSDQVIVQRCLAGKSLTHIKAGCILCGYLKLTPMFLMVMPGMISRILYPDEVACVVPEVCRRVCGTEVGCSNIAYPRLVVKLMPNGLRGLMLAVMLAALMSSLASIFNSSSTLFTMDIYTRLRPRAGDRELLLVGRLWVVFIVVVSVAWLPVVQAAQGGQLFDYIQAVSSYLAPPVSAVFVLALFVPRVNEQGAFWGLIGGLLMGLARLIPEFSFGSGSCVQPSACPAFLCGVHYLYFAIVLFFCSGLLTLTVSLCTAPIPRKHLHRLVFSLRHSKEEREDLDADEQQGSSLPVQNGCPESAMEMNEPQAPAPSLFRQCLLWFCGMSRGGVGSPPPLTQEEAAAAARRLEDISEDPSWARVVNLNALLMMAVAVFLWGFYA", "experiment": "α-methyl glucose uptake in COS7 cells carrying pME18S-hSGLT2", "assay_type": "cell-based", "conditions": "NaCl + 100 μM or 1 mM phlorizin, one-hour incubation, FIG. 12"}, "hSGLT2 [2]": {"target": "T1, hSGLT2", "experiment": "α-methyl glucose uptake in CHO cell expressing hSGLT2", "assay_type": "cell-based", "conditions": "CHO cells, NaCl + 10 μM or 100 μM Phlorizin, one-hour incubation, FIG. 3"}}, "data": [{"compound": "O=C(CCc1ccc(O)cc1)c1c(O)cc(O)cc1O[C@@H]1O[C@H](CO)[C@@H](O)[C@H](O)[C@H]1O", "note": "[phlorizin]", "values": [{"measurement": "inhibition of NaCl-dependent glucose uptake activity", "setting": "hSGLT2 [1]", "value": "inhibited"}, {"measurement": "inhibition of Na-dependent α-methyl glucose uptake activity", "setting": "hSGLT2 [2]", "value": "inhibited"}]}]}
